Measurements published in article PMC2759517 (PLoS ONE, 2009).

Target: HA-tagged PA of FluA (Influenza A virus, UniProt Q2VC91)
Test: biochemical
Format: binding

CSCC[C@H](N)C(=O)N[C@@H](CC(=O)O)C(=O)N[C@H](C(=O)N[C@@H](CC(N)=O)C(=O)N1CCC[C@H]1C(=O)N[C@H](C(=O)N[C@@H](CC(C)C)C(=O)N[C@@H](CC(C)C)C(=O)N[C@@H](Cc1ccccc1)C(=O)N[C@@H](CC(C)C)C(=O)N[C@@H](CCCCN)C(=O)N[C@H](C(N)=O)C(C)C)[C@@H](C)O)C(C)C [1–12]
IC50: 644 nM

CSCC[C@H](N)C(=O)N[C@@H](CC(=O)O)C(=O)N[C@H](C(=O)N[C@@H](CC(N)=O)C(=O)N1CCC[C@H]1C(=O)N[C@H](C(=O)N[C@@H](CC(C)C)C(=O)N[C@@H](CC(C)C)C(=O)N[C@@H](Cc1ccccc1)C(=O)N[C@@H](CC(C)C)C(=O)N[C@@H](CCCCN)C(=O)N[C@H](C(=O)N1CCC[C@H]1C(N)=O)C(C)C)[C@@H](C)O)C(C)C [1–13]
IC50: 138 nM

CSCC[C@H](N)C(=O)N[C@@H](CC(=O)O)C(=O)N[C@H](C(=O)N[C@@H](CC(N)=O)C(=O)N1CCC[C@H]1C(=O)N[C@H](C(=O)N[C@@H](CC(C)C)C(=O)N[C@@H](CC(C)C)C(=O)N[C@@H](Cc1ccccc1)C(=O)N[C@@H](CC(C)C)C(=O)N[C@@H](CCCCN)C(=O)N[C@H](C(=O)N1CCC[C@H]1C(=O)N[C@@H](C)C(N)=O)C(C)C)[C@@H](C)O)C(C)C [1–14]
IC50: 34.5 nM

CSCC[C@H](N)C(=O)N[C@@H](CC(=O)O)C(=O)N[C@H](C(=O)N[C@@H](CC(N)=O)C(=O)N1CCC[C@H]1C(=O)N[C@H](C(=O)N[C@@H](CC(C)C)C(=O)N[C@@H](CC(C)C)C(=O)N[C@@H](Cc1ccccc1)C(=O)N[C@@H](CC(C)C)C(=O)N[C@@H](CCCCN)C(=O)N[C@H](C(=O)N1CCC[C@H]1C(=O)N[C@@H](C)C(=O)N[C@@H](CCC(N)=O)C(=O)N[C@@H](CC(N)=O)C(N)=O)C(C)C)[C@@H](C)O)C(C)C [1–16]
IC50: 45.9 nM

CC[C@H](C)[C@H](NC(=O)[C@H](C)NC(=O)[C@H](CC(N)=O)NC(=O)[C@H](CCC(N)=O)NC(=O)[C@H](C)NC(=O)[C@@H]1CCCN1C(=O)[C@@H](NC(=O)[C@H](CCCCN)NC(=O)[C@H](CC(C)C)NC(=O)[C@H](Cc1ccccc1)NC(=O)[C@H](CC(C)C)NC(=O)[C@H](CC(C)C)NC(=O)[C@@H](NC(=O)[C@@H]1CCCN1C(=O)[C@H](CC(N)=O)NC(=O)[C@@H](NC(=O)[C@H](CC(=O)O)NC(=O)[C@@H](N)CCSC)C(C)C)[C@@H](C)O)C(C)C)C(=O)N[C@@H](CO)C(=O)N[C@H](C(N)=O)[C@@H](C)O [1–20]
IC50: 33.8 nM

CC[C@H](C)[C@H](NC(=O)[C@H](C)NC(=O)[C@H](CC(N)=O)NC(=O)[C@H](CCC(N)=O)NC(=O)[C@H](C)NC(=O)[C@@H]1CCCN1C(=O)[C@@H](NC(=O)[C@H](CCCCN)NC(=O)[C@H](CC(C)C)NC(=O)[C@H](Cc1ccccc1)NC(=O)[C@H](CC(C)C)NC(=O)[C@H](CC(C)C)NC(=O)[C@@H](NC(=O)[C@@H]1CCCN1C(=O)[C@H](CC(N)=O)NC(=O)[C@@H](N)C(C)C)[C@@H](C)O)C(C)C)C(=O)N[C@@H](CO)C(=O)N[C@H](C(=O)N[C@H](C(=O)N[C@@H](Cc1ccccc1)C(=O)N1CCC[C@H]1C(=O)N[C@@H](Cc1ccc(O)cc1)C(=O)N[C@H](C(N)=O)[C@@H](C)O)[C@@H](C)O)[C@@H](C)O [3–25]
IC50: 662 nM

CC[C@H](C)[C@H](NC(=O)[C@H](C)NC(=O)[C@H](CC(N)=O)NC(=O)[C@H](CCC(N)=O)NC(=O)[C@H](C)NC(=O)[C@@H]1CCCN1C(=O)[C@@H](NC(=O)[C@H](CCCCN)NC(=O)[C@H](CC(C)C)NC(=O)[C@H](Cc1ccccc1)NC(=O)[C@H](CC(C)C)NC(=O)[C@H](CC(C)C)NC(=O)[C@@H](NC(=O)[C@@H]1CCCN1)[C@@H](C)O)C(C)C)C(=O)N[C@@H](CO)C(=O)N[C@H](C(=O)N[C@H](C(=O)N[C@@H](Cc1ccccc1)C(=O)N1CCC[C@H]1C(=O)N[C@@H](Cc1ccc(O)cc1)C(=O)N[C@H](C(N)=O)[C@@H](C)O)[C@@H](C)O)[C@@H](C)O [5–25]
IC50: 483 nM
